This assay deals with Fluorescein-labeled Tiam1 peptide (mouse). Nature of the assay: fluorescence polarisation. In general terms: In fluorescence polarisation assays a small probe gives low polarisation when free and higher when bound to something large.

For one substance, Kd results are on record in PMC6669903.

Regarding “CaMKIIα kinase domain (residues 6–274, D135N) (from UniProt Q9UQM7-1 6-274) (domain or fragment)”, the Kd (as a rule, the concentration at which binding is half-saturated) came to 8.1 µM.
